Measurements published in article PMC11602988 (The Journal of Biological Chemistry, 2024).

Assays:
OCT1 Phe244Ala variant = molecular target: T1, OCT1 Phe244Ala variant (Homo sapiens, UniProt O15245, F244A); assay: Uptake screening (transport ratio over empty vector), HEK293 cells overexpressing OCT1 Phe244Ala variant; type: cell-based; parameters: expressed in transfected cells;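 also: stably transfected HEK293 cells, intracellular substrate quantified by HPLC-tandem mass spectrometry in cell lysates, uptake in HBSS+ buffer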
T1 sequence (O15245 1-554 F244A): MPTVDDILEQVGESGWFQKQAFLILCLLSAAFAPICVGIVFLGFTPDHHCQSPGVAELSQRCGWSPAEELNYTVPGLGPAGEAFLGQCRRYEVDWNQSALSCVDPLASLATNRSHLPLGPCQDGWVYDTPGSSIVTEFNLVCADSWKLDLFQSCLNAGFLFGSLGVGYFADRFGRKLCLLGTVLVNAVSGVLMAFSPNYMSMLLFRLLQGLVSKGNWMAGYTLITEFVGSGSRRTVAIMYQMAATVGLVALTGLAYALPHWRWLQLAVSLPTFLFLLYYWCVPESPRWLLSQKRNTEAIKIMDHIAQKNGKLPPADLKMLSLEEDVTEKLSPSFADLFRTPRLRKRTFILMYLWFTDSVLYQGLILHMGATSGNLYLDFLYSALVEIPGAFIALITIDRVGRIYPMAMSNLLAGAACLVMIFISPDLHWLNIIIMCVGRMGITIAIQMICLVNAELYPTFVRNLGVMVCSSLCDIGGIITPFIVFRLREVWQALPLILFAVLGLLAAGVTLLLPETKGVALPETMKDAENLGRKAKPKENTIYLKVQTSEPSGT

OCT1 WT = molecular target: T2, OCT1 WT (Homo sapiens, UniProt O15245); assay: Uptake screening (transport ratio over empty vector), HEK293 cells overexpressing OCT1 WT; type: cell-based; parameters: expressed in transfected cells;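 also: intracellular substrate levels quantified by HPLC–tandem mass spectrometry after uptake in HBSS+ buffer at 37 °C, stable Flp-In HEK293 lines, fold change versus empty vector–transfected cells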
T2 sequence (O15245 1-554): T1 sequence (O15245 1-554 F244A) with A244F

[1] = uptake ratio of OCT1 Phe244Ala-overexpressing HEK293 cells over empty vector
[2] = Phe244Ala uptake relative to OCT1 WT
[3] = uptake ratio of OCT1 WT-overexpressing HEK293 cells over empty vector

| Mean_transport_ratio_Phe244Ala (OCT1 Phe244Ala variant; [1]) | relative_Phe244Ala_uptake_in% (OCT1 Phe244Ala variant; [2]) [%] | Mean_transport_ratio_WT (OCT1 WT; [3]) | Compound | further results |
| --- | --- | --- | --- | --- |
| – | – | – | CNCCc1ccc(O)c(O)c1 [Deoxyepinephrine] | Mean_transport_ratio_Phe244Ala (OCT1 Phe244Ala variant; uptake ratio over empty vector, HEK293 cells overexpressing OCT1 Phe244Ala): 1.257 |
| 1.637 | 39.158 | 2.628 | CN(C)c1ccc2nc3ccc(=[N+](C)C)cc-3sc2c1 [Methylene blue] | – |
| – | 165.426 | – | CCN1CCCC1CNC(=O)c1cc(S(N)(=O)=O)ccc1OC (stereo not shown) [Sulpiride] | Mean_transport_ratio_Phe244Ala (OCT1 Phe244Ala variant): 12.736; Mean_transport_ratio_WT (OCT1 WT; uptake ratio over empty vector, HEK293 cells overexpressing OCT1 WT): 8.095 |
| 0.941 | -22.518 | 1.261 | Minoxidil | – |

| Compound | Mean_transport_ratio_Phe244Ala (OCT1 Phe244Ala variant; [1]) | relative_Phe244Ala_uptake_in% (OCT1 Phe244Ala variant; [2]) [%] | Mean_transport_ratio_WT (OCT1 WT; [3]) | further results |
| --- | --- | --- | --- | --- |
| C[N+]1(C)[C@@H]2CC(OC(=O)[C@H](CO)c3ccccc3)C[C@H]1[C@@H]1O[C@@H]12 (stereo partly shown) [Mehylscopolamine] | 31.927 | – | – | relative_Phe244Ala_uptake_in% (OCT1 Phe244Ala variant): 120.735%; Mean_transport_ratio_WT (OCT1 WT): 26.616 |

Changes are numbered by the printed parent chain. Where two headings read alike, the source gives them in different places.
